Laboratory results as given in paper PMC6009971.

By UniProt entry, the sequences of proteins in these tests, tags left out. Residues count along the entry.
UniProt O43570, 30-289 limits assumed: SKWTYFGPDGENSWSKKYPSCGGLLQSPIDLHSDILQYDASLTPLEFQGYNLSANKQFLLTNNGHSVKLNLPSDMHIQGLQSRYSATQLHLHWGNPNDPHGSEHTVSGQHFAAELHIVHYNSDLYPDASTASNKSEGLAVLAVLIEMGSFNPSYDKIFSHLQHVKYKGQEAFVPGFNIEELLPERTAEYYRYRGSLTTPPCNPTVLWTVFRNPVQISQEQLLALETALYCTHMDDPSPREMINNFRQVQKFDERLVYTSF
UniProt P00915, 2-261 limits assumed: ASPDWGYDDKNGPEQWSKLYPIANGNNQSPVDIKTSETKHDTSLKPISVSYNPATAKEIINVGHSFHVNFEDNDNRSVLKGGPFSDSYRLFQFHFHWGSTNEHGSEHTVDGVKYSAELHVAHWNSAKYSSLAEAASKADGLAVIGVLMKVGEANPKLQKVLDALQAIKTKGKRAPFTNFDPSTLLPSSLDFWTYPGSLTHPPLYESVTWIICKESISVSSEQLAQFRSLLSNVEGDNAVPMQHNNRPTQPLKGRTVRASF

Assays:
Assay in all cases: stopped-flow CO2 hydration assay
hCA XII = hCA XII (Homo sapiens, UniProt O43570); conditions: read-out: Ki ^* (μm) ^* / hCA XII^b; CO2 1.7-17 mM, 10 mM HEPES pH 7.5, 0.1 M Na2SO4, 25 °C, 15 min pre-incubation; unit printed μm means µM
hCA I = hCA I (Homo sapiens, UniProt P00915); conditions: CO2 1.7-17 mM, 10 mM HEPES pH 7.5, 0.1 M Na2SO4, 25 °C, 15 min pre-incubation, unit printed μm means µM
hCA II = hCA II (Homo sapiens, UniProt P00918); conditions: CO2 1.7-17 mM, 10 mM HEPES pH 7.5, 0.1 M Na2SO4, 25 °C, 15 min pre-incubation, unit printed μm means µM
hCA IX = hCA IX (Homo sapiens, UniProt Q16790); conditions: read-out: Ki ^* (μm) ^* / hCA IX^b; CO2 1.7-17 mM, 10 mM HEPES pH 7.5, 0.1 M Na2SO4, 25 °C, 15 min pre-incubation; unit printed μm means µM
[1] = read-out: Selectivity ratios / I/XII
[2] = read-out: Selectivity ratios / I/IX

| Ki (hCA XII) [µM] | Ki (hCA I; [1]) [µM] | Ki (hCA II; [1]) [µM] | Ki (hCA IX) [µM] | Ki (hCA I; [2]) [µM] | Ki (hCA II; [2]) [µM] | SMILES |
| --- | --- | --- | --- | --- | --- | --- |
| 0.12 | > 100 | > 100 | > 50 | – | – | Cc1ccc(S(=O)(=O)N(Cc2ccccc2)/C(F)=C\c2ccccc2C)cc1 |
| > 50 | – | – | 1 | > 100 | > 100 | Cc1ccc(S(=O)(=O)N(Cc2ccccc2)/C(F)=C\c2cccs2)cc1 |
| 4.08 | – | – | 0.038 | > 100 | > 100 | Cc1ccc(S(=O)(=O)N(Cc2ccccc2)/C(F)=C\c2ccsc2)cc1 |
| 0.116 | > 100 | > 100 | > 10 | – | – | O=C1c2ccccc2C(=O)N1/C(F)=C\c1ccccc1 |
| 0.366 | – | – | 0.021 | > 100 | > 100 | Cc1ccc(S(=O)(=O)N(Cc2ccccc2)/C(F)=C\C=C\c2ccccc2)cc1 |

Read-outs that look alike come from different tables or passages of the source.
